Sequences of proteins named here, by UniProt entry; tags and fusion partners are left off. Residues count along the entry.
UniProt A9XFY4, 20-781 limits assumed: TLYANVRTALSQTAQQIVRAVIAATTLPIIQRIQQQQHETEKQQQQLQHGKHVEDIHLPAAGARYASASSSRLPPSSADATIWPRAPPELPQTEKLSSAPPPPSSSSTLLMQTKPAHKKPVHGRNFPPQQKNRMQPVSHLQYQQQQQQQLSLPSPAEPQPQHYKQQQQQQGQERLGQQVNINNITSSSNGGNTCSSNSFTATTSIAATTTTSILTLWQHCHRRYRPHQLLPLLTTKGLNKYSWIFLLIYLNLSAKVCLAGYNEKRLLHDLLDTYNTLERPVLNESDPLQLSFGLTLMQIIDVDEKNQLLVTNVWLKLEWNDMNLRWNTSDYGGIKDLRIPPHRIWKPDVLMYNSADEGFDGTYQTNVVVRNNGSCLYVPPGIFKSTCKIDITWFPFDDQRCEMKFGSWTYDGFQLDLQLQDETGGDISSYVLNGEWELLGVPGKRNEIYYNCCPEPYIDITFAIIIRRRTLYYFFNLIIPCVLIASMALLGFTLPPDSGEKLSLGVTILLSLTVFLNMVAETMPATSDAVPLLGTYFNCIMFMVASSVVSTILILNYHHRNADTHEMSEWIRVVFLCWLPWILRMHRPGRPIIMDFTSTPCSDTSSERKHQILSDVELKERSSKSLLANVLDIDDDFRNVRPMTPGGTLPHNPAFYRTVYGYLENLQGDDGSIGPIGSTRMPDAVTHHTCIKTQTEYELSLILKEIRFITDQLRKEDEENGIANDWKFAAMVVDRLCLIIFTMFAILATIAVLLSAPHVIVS

In ChEMBL document CHEMBL3046309, “Dihydropiperazine neonicotinoid compounds. Synthesis and insecticidal activity” (J Agric Food Chem, 2003):

Molecular target: Nicotinic acetylcholine receptor alpha 5 subunit (Musca domestica, UniProt A9XFY4)
Test: Displacement of [3H]imidacloprid from nicotinic acetylcholine receptor in Musca domestica (house fly) head membrane after 1 hr by liquid scintillation counting analysis

| Structure (SMILES) | pKi |
| --- | --- |
| O=C1/C(=N\O)NCCN1Cc1ccc(Cl)nc1 | 5.48 |
| CN1C/C(=N\C#N)N(Cc2ccc(Cl)nc2)CC1=O | < 5.00 |
| CN1CCN=C(N(C#N)Cc2ccc(Cl)nc2)C1=O | < 5.00 |

pKi: −log10 of the molar value.
